# Source: PubChem BioAssay (NCATS)
# Protein sequences, listed by entry. Tags and fused reporters are not part of them. Residues count along the entry.
# UniProt Q12809, 1-548 isoform 6: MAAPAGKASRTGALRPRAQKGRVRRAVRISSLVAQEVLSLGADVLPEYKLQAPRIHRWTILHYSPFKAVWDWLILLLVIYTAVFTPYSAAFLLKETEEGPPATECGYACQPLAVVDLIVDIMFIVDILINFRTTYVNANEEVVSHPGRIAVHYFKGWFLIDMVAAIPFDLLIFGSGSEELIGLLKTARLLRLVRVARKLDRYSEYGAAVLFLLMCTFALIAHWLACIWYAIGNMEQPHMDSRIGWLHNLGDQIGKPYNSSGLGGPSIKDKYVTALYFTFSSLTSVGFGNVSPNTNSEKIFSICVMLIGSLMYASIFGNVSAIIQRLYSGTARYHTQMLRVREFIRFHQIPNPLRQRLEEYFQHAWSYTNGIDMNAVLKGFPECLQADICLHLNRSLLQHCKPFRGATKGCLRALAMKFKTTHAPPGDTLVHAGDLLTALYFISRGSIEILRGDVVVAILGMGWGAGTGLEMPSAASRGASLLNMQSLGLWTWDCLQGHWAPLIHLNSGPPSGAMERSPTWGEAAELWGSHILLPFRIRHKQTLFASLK
# UniProt P10828, whole entry: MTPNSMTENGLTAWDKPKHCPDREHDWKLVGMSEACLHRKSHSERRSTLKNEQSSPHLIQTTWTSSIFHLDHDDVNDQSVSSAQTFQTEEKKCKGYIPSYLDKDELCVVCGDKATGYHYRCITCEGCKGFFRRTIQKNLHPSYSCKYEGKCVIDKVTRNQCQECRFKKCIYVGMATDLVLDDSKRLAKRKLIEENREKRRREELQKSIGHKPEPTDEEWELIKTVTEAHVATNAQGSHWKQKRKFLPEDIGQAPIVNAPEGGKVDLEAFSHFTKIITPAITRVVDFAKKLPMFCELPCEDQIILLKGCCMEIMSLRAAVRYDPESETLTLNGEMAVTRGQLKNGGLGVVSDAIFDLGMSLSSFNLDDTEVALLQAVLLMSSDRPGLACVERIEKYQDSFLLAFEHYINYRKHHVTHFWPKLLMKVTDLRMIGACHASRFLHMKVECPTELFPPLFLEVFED
# UniProt P08659, whole entry: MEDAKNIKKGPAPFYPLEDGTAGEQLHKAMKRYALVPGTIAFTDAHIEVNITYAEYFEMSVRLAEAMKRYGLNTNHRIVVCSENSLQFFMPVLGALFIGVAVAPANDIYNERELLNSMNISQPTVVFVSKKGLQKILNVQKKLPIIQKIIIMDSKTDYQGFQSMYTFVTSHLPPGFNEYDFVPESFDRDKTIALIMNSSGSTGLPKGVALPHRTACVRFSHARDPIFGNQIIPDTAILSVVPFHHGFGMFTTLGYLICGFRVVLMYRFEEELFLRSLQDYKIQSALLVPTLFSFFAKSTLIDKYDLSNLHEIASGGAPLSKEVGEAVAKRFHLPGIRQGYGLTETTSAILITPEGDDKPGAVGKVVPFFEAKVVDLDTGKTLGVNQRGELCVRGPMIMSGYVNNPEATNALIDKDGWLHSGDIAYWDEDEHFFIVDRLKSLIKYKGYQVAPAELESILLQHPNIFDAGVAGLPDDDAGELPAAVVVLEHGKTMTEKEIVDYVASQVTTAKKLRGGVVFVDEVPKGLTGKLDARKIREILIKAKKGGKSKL
# UniProt Q03181, whole entry: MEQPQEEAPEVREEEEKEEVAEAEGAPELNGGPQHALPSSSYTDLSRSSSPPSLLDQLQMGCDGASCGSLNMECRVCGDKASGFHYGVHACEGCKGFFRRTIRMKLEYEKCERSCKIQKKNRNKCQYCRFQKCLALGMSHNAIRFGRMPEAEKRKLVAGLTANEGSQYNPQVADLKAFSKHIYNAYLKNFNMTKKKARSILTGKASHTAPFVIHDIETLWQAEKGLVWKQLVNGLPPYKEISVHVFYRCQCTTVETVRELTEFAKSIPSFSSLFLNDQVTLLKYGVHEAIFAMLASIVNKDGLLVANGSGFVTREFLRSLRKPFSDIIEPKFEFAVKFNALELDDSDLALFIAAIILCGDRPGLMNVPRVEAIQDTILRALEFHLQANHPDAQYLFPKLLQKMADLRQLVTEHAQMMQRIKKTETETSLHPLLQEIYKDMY
# Several values for one entry are separate records, joined by “and”; a condition that tells them apart may be missing. Equal values may be shown once. The entries are a selection whose mix differs from that of the whole data set. Inconclusive results are not listed. For part of these data: Measured potencies and affinities stand elsewhere. Activity calls are given as the source filed them. Unless noted, calls come from the whole dose curve.
# Tests used:
# [1] = target: Voltage-gated inwardly rectifying potassium channel KCNH2 (Homo sapiens) (UniProt Q12809); experiment: qHTS Assay for Small Molecule Inhibitors of the Human hERG Channel Activity (AID 588834; active = well fitted curve in the direction sought with a large enough effect; an effect the other way counts as inactive or inconclusive;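 note: U2OS cells transduced with hERG by BacMam; top concentration of the series differs between compounds; % is set by controls: 0 for no effect and ±100 for the full control effect; lower thallium flux fluorescence means stronger hERG block; nearly all actives have a fitted effect of over 50% in size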); settings: U2OS BacMam hERG, FluxOR thallium flux fluorescence
# [2] = target: Peroxisome proliferator-activated receptor gamma (Homo sapiens) (UniProt P37231); experiment: qHTS assay for small molecule agonists of peroxisome proliferator-activated receptor gamma signaling (AID 588536; active = well fitted curve in the direction sought with a large enough effect in the signal ratio, with a control signal flat, not every such curve was filed as active; the % refers to the signal ratio;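 note: 0% = DMSO basal wells and 100% = rosiglitazone at 2 µM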); settings: HEK293 PPARg-UAS-bla, beta-lactamase ratio, 16 h, percent of rosiglitazone response, DMSO as zero; at 76.7 µM (top of the series)
# Method in brief: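 HEK293 UAS-bla reporter line, 1% charcoal/dextran FBS; titration, 16 h, 37 C; CCF4 loading 2 h RT; fluorescence 460/530 nm. Normalized to rosiglitazone 2 uM = 100%, DMSO = 0%.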
# [3] = target: Retinoic acid receptor RXR-alpha (Homo sapiens) (UniProt P19793); experiment: qHTS assay for small molecule agonists of retinoid X receptor alpha signaling (AID 588544); settings: HEK293T RXRa-UAS-bla, beta-lactamase reporter, 18 h; at 76.7 µM (top of the series);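 note: 0% = DMSO basal wells and 100% = reference agonist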
# [4] = target: Retinoic acid receptor RXR-alpha (Homo sapiens) (UniProt P19793); experiment: qHTS assay for small molecule antagonists of retinoid X receptor alpha signaling (AID 588546; active = well fitted inhibition curve with a large enough effect in the signal ratio, with a control signal flat, not every such curve was filed as active; the % refers to the signal ratio;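 note: cells stimulated with 9-cis-retinoic acid as agonist; % is set by controls: 0 for no effect and ±100 for the full control effect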); settings: HEK293T RXRa-UAS-bla, beta-lactamase ratio, antagonist mode
# Method in brief: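 Beta-lactamase reporter inhibition, read as CCF4 fluorescence ratio (ex 405, em 460/530 nm) after 2 h at RT. HEK293T UAS-bla cells, 2500/well, were stimulated with 9-cis-RA at 500 or 100 nM final alongside test compound for 18 h at 37 C.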
# [5] = qHTS assay for small molecule agonists of the antioxidant response element (ARE) signaling pathway (AID 651741; active = well fitted activation curve with a large enough effect in the signal ratio; the % refers to the signal ratio; note: potency is the fitted concentration of half-maximal effect; for activation: % of control where 0% means no effect); settings: HepG2 ARE-bla reporter, beta-lactamase FRET ratio, 16 h; series mostly up to 96 µM
# Method in brief: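 Compounds in DMSO are pinned onto HepG2 ARE-bla cells (2,000/well) that were preincubated 5 h; plates stay 16 h at 37 C, then beta-lactamase activity is detected with LiveBLAzer B/G substrate by fluorescence.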
# [6] = qHTS assay for small molecule activators of the p53 signaling pathway (AID 651743; active = well fitted activation curve with a large enough effect in the signal ratio, not every such curve was filed as active; the % refers to the signal ratio; note: % of control where 0% means no effect); settings: HCT-116 p53RE-bla, beta-lactamase FRET ratio, 16 h; hits give high values
# Method in brief: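 Cell-based beta-lactamase reporter (p53 response elements, HCT-116 background). After a 5-hour preincubation, cells received compound for 16 hours at 37 C; substrate development ran 2 hours at room temperature.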
# [7] = target: Vitamin D3 receptor (Homo sapiens) (UniProt P11473); experiment: qHTS assay for small molecule antagonists of vitamin D receptor signaling (AID 588541); settings: HEK293T VDR-UAS-bla, beta-lactamase ratio, antagonist mode; at 76.7 µM (top of the series);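 note: receptor activated by calcitriol during compound treatment; % is set by controls: 0 for no effect and ±100 for the full control effect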
# Method in brief: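 VDR-UAS-bla HEK293T cells (2000/well, 2% charcoal-stripped FBS) were treated with titrated compounds plus 1-alpha,25-dihydroxyvitamin D3 (50 nM or 3 nM final) for 16 h at 37 C. CCF4 beta-lactamase fluorescence was read; Hill fits gave IC50.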
# [8] = target: Vitamin D3 receptor (Homo sapiens) (UniProt P11473); experiment: qHTS assay for small molecule agonists of vitamin D receptor signaling (AID 588543); settings: HEK293T VDR-UAS-bla, beta-lactamase ratio, 16 h; at 76.8 µM (top of the series);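 note: 0% = DMSO basal and 100% = reference agonist control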
# Method in brief: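 qHTS in agonist mode: compound titrations stimulate a VDR-driven β-lactamase reporter in HEK293T cells over 16 h at 37 °C. Response normalized to 50 nM 1α,25-dihydroxyvitamin D3 = 100%, DMSO = 0%; Hill fitting gives EC50 and maximal response.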
# [9] = target: Thyroid hormone receptor beta (Homo sapiens) (UniProt P10828); experiment: qHTS assay for small molecule agonists of thyroid hormone receptor beta signaling (AID 588545); settings: TR-UAS-bla GripTite HEK 293, beta-lactamase ratio, agonist mode, 18 h, percent of T3 response, DMSO as zero; at 76.7 µM (top of the series)
# Method in brief: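 In this cell-based screen, titrated compounds act on HEK 293 cells held in medium with 2% charcoal/dextran FBS, NEAA and pyruvate for 18 hrs at 37 C. Responses are expressed relative to T3 (10 nM) as 100% and basal DMSO as 0%.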
# [10] = target: Thyroid hormone receptor beta (Homo sapiens) (UniProt P10828); experiment: qHTS assay for small molecule antagonists of thyroid hormone receptor beta signaling (AID 588547; active = well fitted inhibition curve with a large enough effect in the signal ratio, with a control signal flat, not every such curve was filed as active; the % refers to the signal ratio); settings: TR-UAS-bla HEK293, beta-lactamase ratio, antagonist mode, 18 h; hits give low values
# Method in brief: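 TR-UAS-bla GripTite HEK293 cells in 2% charcoal/dextran FBS medium were preincubated 4 h at 37 C, given compound (0.59 nM to 92 uM) plus 0.4 nM T3 (final) for 18 h, then CCF4 for 2 h at RT; Hill fit gave IC50.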
# [11] = target: Peroxisome proliferator-activated receptor gamma (Homo sapiens) (UniProt P37231); experiment: qHTS assay for small molecule antagonists of peroxisome proliferator-activated receptor gamma signaling (AID 588537; active = well fitted inhibition curve with a large enough effect in the signal ratio, with a control signal flat, not every such curve was filed as active; the % refers to the signal ratio;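 note: reporter cells co-stimulated with 50 nM rosiglitazone agonist during compound treatment; % of control where 0% means no effect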); settings: HEK293 PPARg-UAS-bla, beta-lactamase ratio, antagonist mode; series mostly up to 76.8 µM
# Method in brief: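 We seeded GeneBLAzer HEK293 reporter cells at 3000 per well, allowed 6-6.5 h attachment at 37 C, then co-treated with test compound titrations and 50 nM rosiglitazone overnight (16 h). Inhibition was quantified from 460/530 nm emission ratios.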
# [12] = target: Luciferin 4-monooxygenase (Photinus pyralis) (UniProt P08659); experiment: Biochemical firefly luciferase enzyme assay for NPC (AID 624030; active = well fitted curve in the direction sought with a large enough effect; an effect the other way counts as inactive or inconclusive;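 note: purified P. pyralis luciferase at 10 nM with luciferin and ATP substrate; 0% = DMSO and -100% = full luciferase inhibition by PTC124 control; nearly all actives have a fitted effect of over 70% in size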); settings: purified P. pyralis luciferase, luminescence, 5 min
# Method in brief: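 Counter-screen for direct inhibition of the luciferase enzyme by approved-drug library compounds, run at 10 nM enzyme in 50 mM Tris acetate (final). Luminescence was read within 5 min of enzyme-buffer addition and normalized to PTC124 versus DMSO (0%).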
# [13] = S16 Schwann cell viability assay (CellTiter-Glo assay) (AID 624031; active = well fitted curve in the direction sought with a large enough effect; an effect the other way counts as inactive or inconclusive;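 note: cellular ATP luminescence as a viability measure; plate controls were DMSO-treated cells for no effect and cell-free wells for full effect; nearly all actives have a fitted effect of over 70% in size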); settings: S16 rat Schwann cells viability, 24 h; at 57.5 µM (top of the series) unless noted
# Method in brief: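 Native S16 Schwann cells (rat), serum-containing medium, overnight attachment then 24 h drug exposure at 37 °C/5% CO2. CellTiter-Glo ATP signal; normalized to cell-free and vehicle wells.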
# [14] = S16 Schwann cell PMP22 intronic element beta-lactamase assay (AID 624044); settings: S16 rat Schwann cells, PMP22 element beta-lactamase FRET, 24 h; at 38.3 µM (top of the series) unless noted;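 note: 0% = DMSO and -100% = potassium clavulanate positive control; nearly all actives have a fitted effect of over 15% in size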
# [15] = S16 Schwann cell PMP22 intronic element firefly luciferase assay (AID 624032; active = well fitted curve in the direction sought with a large enough effect; an effect the other way counts as inactive or inconclusive; note: potency is the fitted concentration of half-maximal effect; nearly all actives have a fitted effect of over 30% in size); settings: S16 rat Schwann cells, PMP22 element FLuc, 24 h; series mostly up to 57.5 µM
# [16] = target: Peroxisome proliferator-activated receptor delta (Homo sapiens) (UniProt Q03181); experiment: qHTS assay for small molecule antagonists of peroxisome proliferator-activated receptor delta signaling (AID 588535; active = well fitted inhibition curve with a large enough effect in the signal ratio, with a control signal flat, not every such curve was filed as active; the % refers to the signal ratio); settings: HEK293T PPARd-UAS-bla, beta-lactamase FRET ratio, 18 h; at 76.7 µM (top of the series)
structure (smiles),measurement,setting,value
C/C1=C2N=C(/C=C3N=C(/C(C)=C4\[N-][C@@](C)([C@@H]5N=C1[C@](C)(CCC(=O)NC[C@@H](C)OP(=O)([O-])O[C@H]1[C@@H](O)[C@@H](n6cnc7cc(C)c(C)cc76)O[C@@H]1CO)[C@H]5CC(N)=O)[C@@](C)(CC(N)=O)[C@@H]4CCC(N)=O)[C@@](C)(CC(N)=O)[C@@H]\3CCC(N)=O)C(C)(C)[C@@H]/2CCC(N)=O.[C-]#N.[Co+3],"activity change, negative = inhibition",[1]; at 20.6 µM (top of the series),inactive: 5.6%
[NH4+].[O-][Cl+3]([O-])([O-])[O-],activation,[2],inactive: 2.27%
same,activation,[3],inactive: 0.445%
same,max response,[4],inactive: 3.9%
same,"activity change, negative = inhibition",[1]; at 92.2 µM (top of the series),inactive: -18.9%
same,Potency,[5],inactive
same,activation,[6],inactive: 0.306%
Cc1ccc([N+](=O)[O-])cc1[N+](=O)[O-],activation,[2],inactive: 6.25%
same,"activity change, negative = inhibition",[7],inactive: 3.04% and inactive: 3.7%
same,activation,[8],inactive: -0.552% and inactive: 1.36%
same,activation,[3],inactive: 4.16% and inactive: 28.3%
same,activation,[9],inactive: -13.8% and inactive: -4.76%
same,max response,[4],inactive: 5.79% and inactive: 7.77%
same,inhibition,[10],inactive: -3.15%
same,Potency,[5],active: 54.5 µM
same,activation,[6],inactive: -2.97% and inactive: -3.75%
O=[N+]([O-])[O-].[NH4+],activation,[2],inactive: 3.73%
same,Potency,[11],inactive
same,activation,[3],inactive: 7.33%
same,max response,[4],inactive: 2.29%
same,"activity change, negative = inhibition",[12]; at 58.6 µM (top of the series),inactive: 4.38%
same,"activity change, negative = cytotoxicity",[13],inactive: -3.8%
same,"ratio activity, negative = inhibition",[14],inactive: -0.059%
same,activation,[6],inactive: -0.087%
C/C1=C2N=C(/C=C3N=C(/C(C)=C4\[N-][C@@](C)([C@H]5N=C1[C@@](C)(CCC(=O)NC[C@H](C)OP(=O)([O-])O[C@@H]1[C@H](O)[C@H](n6cnc7cc(C)c(C)cc76)O[C@@H]1CO)[C@@H]5CC(N)=O)[C@](C)(CC(N)=O)[C@H]4CCC(N)=O)[C@@](C)(CC(N)=O)[C@@H]\3CCC(N)=O)C(C)(C)[C@@H]/2CCC(N)=O.[C-]#N.[Co+3],"activity change, negative = inhibition",[12]; at 24.9 µM (top of the series),inactive: -2.69%
same,"activity change, negative = cytotoxicity",[13],inactive: 3.39% [at 25.7 µM]
same,Potency,[15],active: 15.5 µM
same,"ratio activity, negative = inhibition",[14],inactive: -0.295% [at 17.1 µM]
CCOP(=O)(CC)OCC,activation,[2],inactive: -0.489%
same,Potency,[11],inactive
same,"activity change, negative = inhibition",[7],inactive: -4%
same,activation,[8],inactive: -0.781%
same,activation,[3],inactive: 9.21%
same,activation,[9],inactive: -13.5%
same,max response,[4],inactive: 2.97%
same,inhibition,[10],inactive: 4.05%
same,"activity change, negative = inhibition",[1]; at 92.2 µM (top of the series),inactive: 0.215%
same,Potency,[5],inactive
same,activation,[6],inactive: -2.09%
NC(=O)Nc1ccc([As](=O)(O)O)cc1,"ratio activity, negative = inhibition",[14],inactive: -0.651%
Cc1c([N+](=O)[O-])cccc1[N+](=O)[O-],activation,[2],inactive: -0.601% and inactive: -5.26%
same,Potency,[11],inactive
same,"activity change, negative = inhibition",[7],inactive: -0.306% and inactive: 11.6%
same,activation,[8],inactive: 1.03% and inactive: 2.84%
same,activation,[3],inactive: -2.35% and inactive: 8.88%
same,activation,[9],inactive: -3.4% and inactive: -4.7%
same,max response,[4],inactive: 14.9% and inactive: -2.96%
same,inhibition,[10],inactive: 12.6% and inactive: 19.8%
same,"activity change, negative = inhibition",[1]; at 92.2 µM (top of the series),inactive: 3.07%
same,Potency,[5],inactive
same,activation,[6],inactive: -3.32% and inactive: -1.81%
CC(C)N(CCCl)C(C)C,"activity change, negative = inhibition",[12]; at 58.6 µM (top of the series),inactive: -3.89%
CCOP(=S)(CC)Oc1cc(Cl)c(Cl)cc1Cl (configuration not stated),"activity change, negative = inhibition",[16],inactive: -12.7%
same,Potency,[11],inactive
same,"activity change, negative = inhibition",[7],inactive: 5.46%
same,activation,[8],inactive: -2.56%
same,activation,[3],inactive: -6.12%
same,max response,[4],inactive: 3.45%
same,inhibition,[10],inactive: -0.529%
same,activation,[6],inactive: 0.676%
CCC(C)(OO)OOC(C)(CC)OO (configuration not stated),"activity change, negative = inhibition",[16],inactive: -0.853%
same,activation,[2],inactive: 2.06% and inactive: -5.47%
same,Potency,[11],inactive
same,"activity change, negative = inhibition",[7],inactive: 7.54% and inactive: 4.03%
same,activation,[8],inactive: 1.85% and inactive: 4.95%
same,activation,[3],inactive: 1.72% and inactive: 1.55%
same,activation,[9],inactive: 6.87% and inactive: -0.407%
same,max response,[4],inactive: 4.29% and inactive: 1.38%
same,inhibition,[10],inactive: 6.52% and inactive: -4.48%
same,"activity change, negative = inhibition",[1]; at 92.2 µM (top of the series),inactive: -1.07%
same,Potency,[5],inactive
same,activation,[6],inactive: -0.678% and inactive: 1.25%
